Amino acid sequences for entries named in this document (tags omitted).
UniProt Q8C6L5, whole entry, looked up: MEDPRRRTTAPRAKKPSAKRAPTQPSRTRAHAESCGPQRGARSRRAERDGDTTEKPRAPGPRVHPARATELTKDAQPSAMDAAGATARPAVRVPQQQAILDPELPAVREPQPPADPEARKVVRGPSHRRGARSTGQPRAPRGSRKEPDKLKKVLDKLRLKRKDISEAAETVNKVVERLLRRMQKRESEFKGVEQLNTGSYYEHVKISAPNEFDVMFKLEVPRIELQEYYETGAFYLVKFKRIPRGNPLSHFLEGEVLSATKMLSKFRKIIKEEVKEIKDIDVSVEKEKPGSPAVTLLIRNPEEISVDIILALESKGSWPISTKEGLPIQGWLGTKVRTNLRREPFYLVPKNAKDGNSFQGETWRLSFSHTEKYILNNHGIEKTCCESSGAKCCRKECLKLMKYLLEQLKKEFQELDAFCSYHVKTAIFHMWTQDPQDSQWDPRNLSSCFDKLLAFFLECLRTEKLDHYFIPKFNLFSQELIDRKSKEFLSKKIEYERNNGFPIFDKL

Several values for one entry are separate records, joined by “and”; a condition that tells them apart may be missing. Equal values may be shown once. The entries are a selection whose mix differs from that of the whole data set. Activity calls are given as the source filed them.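 How the source made its calls: active means inhibition of cGAS enzyme activity at or above 60%; inactive means the rest.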
Each molecule was assayed against Cyclic GMP-AMP synthase (Mus musculus) (UniProt Q8C6L5) (assay: inhibitors of Mus musculus cyclic GMP-AMP synthase, initial high-throughput assay, cell-free, RapidFire MS (AID 1259397;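 further: enzyme stimulated by 45 bp dsDNA with ATP and GTP substrates; cGAMP share of summed cGAMP plus half ATP and half GTP signals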)). Conditions: recombinant mouse cGAS, cGAMP by RapidFire MS; at 12.5 µM; stronger effect = higher value.
In the case of `CCOP(=O)(NC(=NC(C)c1ccccc1)NC(C)c1ccccc1)OCC` (stereo not given), the inhibition is reported as inactive: 0.307%. With `CC1CCC(C(C)C)C(OP(=O)(Nc2ccccn2)c2ccccc2)C1` (stereo not given) the inhibition was inactive: -4.95% and inactive: -10%. `Cc1n[n+]2c([nH]c1=O)SCC(Br)C2c1ccccc1` (stereo not given) was tested, and the inhibition was inactive: -6.58%. With `O=C1c2no[n+]([O-])c2C(=O)c2no[n+]([O-])c21` the inhibition was inactive: 29.4%. With `CCSP(=O)(c1ccccc1)c1ccccc1` the inhibition was inactive: -4.08%. `CCOP1(=S)c2c(C)nn(CCC#N)c2N=C(c2ccccc2F)N1C` (stereo not given) was tested, and the inhibition was inactive: -14%. For `CC(C)N(C(=O)C12CC3CC(C1)CC(P(=O)(Cl)Cl)(C3)C2)C(C)C`, the inhibition was inactive: -3.77%. With `CN1c2ccccc2N2CC(C)(CI)SC12` (stereo not given) the inhibition was inactive: -0.724%. For `NC(=O)Nc1ccc([As](=O)(O)O)cc1`, the inhibition was inactive: 4.21%. In the case of `Cc1ccnc(NP2(=O)C=C(c3ccccc3)OC(c3ccccc3)=C2)c1`, the inhibition is reported as inactive: -9.18%. In the case of `CN(CCCl)Cc1cc2cc(I)ccc2s1`, the inhibition is reported as inactive: -0.394%. In the case of `CN1C(=O)C2C(N=C(N3CCOCC3)N2CCc2ccccc2)N(C)C1=O` (stereo not given), the inhibition is reported as inactive: 1.99%. For `Cc1ccc(NP(=O)(OCC(F)(F)F)OCC(F)(F)F)nc1`, the inhibition was inactive: -2.12%. For `O=C1OC2C3CC(CC13)C2SC(CCl)C(F)(F)F` (stereo not given), the inhibition was inactive: -1.19%. With `COc1ccc2nc(NP(=O)(c3ccccc3)c3ccccc3)sc2c1` the inhibition was inactive: -31.1%. With `CN(C)C1=C(c2c([N+](=O)[O-])cc([N+](=O)[O-])cc2[N+](=O)[O-])CCCC1` the inhibition was inactive: -5.9%. With `O=P(N=c1nc(-c2ccccc2)n(-c2ccccc2)s1)(N1CCOCC1)N1CCOCC1` the inhibition was inactive: -3.01%. `CC(C)NC(=O)NP(=O)(Oc1ccccc1)Oc1ccccc1` was tested, and the inhibition was inactive: -1.5%. `O=C(OC1CN2CCC1CC2)c1cccc2[nH]cnc12` (stereo not given) was tested, and the inhibition was inactive: -5.78%. With `COP1(=S)N=C2c3ccccc3CN2c2cc(N(C)C)ccc21` (stereo not given) the inhibition was inactive: -5.56%. For `O=C(CBr)c1ccc([N+](=O)[O-])cc1`, the inhibition was inactive: -9.54%. With `COP1(=S)c2c(C)nn(-c3ccccc3)c2N=C(c2ccccc2)N1C1CC1` (stereo not given) the inhibition was inactive: -10.2%. In the case of `O=C(OC1CN2CCC1CC2)C1COc2ccccc2O1` (stereo not given), the inhibition is reported as inactive: -18.7%. `COP(=O)(NS(=O)(=O)c1ccc(Cl)cc1)OC` was tested, and the inhibition was inactive: 26.7% and inactive: -15.1%. For `CCCCOP1(=S)N=C2c3ccccc3CN2c2cc(N(C)C)ccc21` (stereo not given), the inhibition was inactive: -19.1%. In the case of `CCCCOP(=O)(OCCCC)N(CC)CC`, the inhibition is reported as inactive: -12.3%. `CCOP1(=S)c2c(C)nn(-c3ccccc3)c2N=C(c2ccccc2)N1C1CC1` (stereo not given) was tested, and the inhibition was inactive: -12.2%. In the case of `CC(C)(C)NC1=NCC(CI)S1` (stereo not given), the inhibition is reported as inactive: -6.13%. `O=C(O[C@H]1CN2CCC1CC2)C1NCc2ccccc2[C@@H]1c1ccccc1` (stereo not given in full) was tested, and the inhibition was inactive: 0.863%. In the case of `CCOP(OCC)N1CCOCC1`, the inhibition is reported as inactive: -21.1%. In the case of `O=C(NC(Sc1ccncn1)C(Cl)(Cl)Cl)c1ccccc1` (stereo not given), the inhibition is reported as inactive: -18.9%. In the case of `O=P(O)(O)F`, the inhibition is reported as inactive: -9.04%. With `CN(C)c1ccc2c(c1)N1Cc3ccccc3C1=NP2(=O)c1ccccc1` (stereo not given) the inhibition was inactive: -15.1%. With `O=C(NC1CCS(=O)(=O)C1)NP(=S)(Oc1ccccc1)Oc1ccccc1` (stereo not given) the inhibition was inactive: 17.7%. In the case of `O=C(c1cccc([N+](=O)[O-])c1)c1ccc([N+](=O)[O-])c([N+](=O)[O-])c1`, the inhibition is reported as inactive: -8.57%. With `CC[N+](CC)=C1SC2CS(=O)(=O)C(Br)C2(C)S1` (stereo not given) the inhibition was inactive: 3.44%. For `O=C(OC1CN2CCC1CC2)c1ccccc1` (stereo not given), the inhibition was inactive: -6.04%. With `CC1CCC(C(C)C)C(OP(=O)(Nc2nccs2)c2ccccc2)C1` (stereo not given) the inhibition was inactive: -3.17%. For `O=P(Nc1ccccn1)(c1ccc(Br)cc1)c1ccc(Br)cc1`, the inhibition was inactive: 49%. With `CCC(C)C(=O)N1CCCC(C(=O)OC2CN3CCC2CC3)C1` (stereo not given) the inhibition was inactive: -5.65%.

From PubChem BioAssay AID1259397 (Fisher Drug Discovery Resource Center, 2018)
